Laboratory results published in patent US7807162B2, “Single domain VHH antibodies against von Willebrand factor” (Ablynx N.V., priority 2005, dated 2010).
Residue numbers refer to the chain shown, from its start.

Experiments:
[1] = molecular target: T1, vWF (Homo sapiens, UniProt P04275); assay: Analysis in BIACORE for binding to vWF; conditions: for K-on and K-off rates compared among homologue nanobodies: nanobody 5 μg/ml
Protocol: vWF was covalently bound to the sensor chip surface via amine coupling. The CM5 surface of the chip was activated by the injection of EDC/NHS (1:1 mix of 0.4 M 1-ethyl-3-(3-dimethylaminopropyl)-carbodiimide and 0.1 M N-hydroxysuccinimide in water) for 7 minutes. Upon activation vWF was injected until an increase of 6000 response units was detected. The excess of reactive groups was deactivated with 1 M Ethanolamine-HCl (pH 8.5) for 7 minutes. The flowrate was kept constant during the immobilization procedure at 5 ul/min. The eluent buffer was 0.01 M HEPES (pH 7,4) with 0.15 M NaCl, 3 mM EDTA and 0.005% Surfactant P20.
The nanobodies 12B6 and 12A5 and their homologue proteins were analysed in BIACORE on vWF at a concentration of the nanobody of 5 μg/ml as shown in FIGS. 4 and 5.
From the set of curves that were generated for each nanobody, only those curves where equilibrium was reached, were used to derive the KD value via steady state affinity.

[2] = Stability at elevated temperatures: concentration of supernatant (OD280) after heating; format: physicochemical
[3] = molecular target: T1, vWF; assay: Stability at elevated temperatures: binding in ELISA to vWF after heating; format: physicochemical; conditions: 1 hour at different temperatures
Protocol: A stock solution of nanobodies at a concentration of 200 μg/ml in PBS was prepared and divided into several tubes. Each tube containing nanobody was incubated at different temperatures for 1 hour, then cooled at room temperature for 2 hours and put at 4° C. overnight. The next day, the samples were centrifuged for 30 minutes at 13000 rpm, and the supernatant was tested for OD280 nm. The concentration of supernatants were measured spectrophotometrically and expressed as a percentage of the concentration at room temperature.
The supernatants were also tested in ELISA for binding to vWF as described above in Example 3.
The supernatants were tested in ELISA for binding to vWF as described above in Example 3. The supernatants were applied starting at a 1/100 dilution and 1/5 dilutions were made in PBS. Results are shown in FIG. 12 (12B6), FIG. 13 (12A2) and FIG. 14 (12A5).

[4] = system: baboon vWF; assay: Cross-reactivity ELISA with vWF from plasma of other species (baboon); format: binding; conditions: nanobody 10 μg/ml
Protocol: (§1) A microtiterplate was coated with mouse anti-myc at 1/1000 overnight at 4° C. The plate was washed with PBS-Tween and blocked for two hours at room temperature with PBS-1% casein. After washing, the nanobodies were applied at a concentration of 10 μg/ml in PBS. After a one hour incubation period, the plates were washed and plasma (dog, pig, human, baboon and cynomologues monkey) was applied starting at a five-fold dilution and making further two-fold dilutions in PBS. The plates were incubated for 1 hour at room temperature. The plates were washed and polyclonal anti-vWF-HRP (DAKO) was applied at a 2000-fold dilution for one hour at room temperature. The plates were washed and ABTS/H2O2 substrate was applied. The OD 405 nm was measured.

[5] = system: cynomologues monkey vWF; assay: Cross-reactivity ELISA with vWF from plasma of other species (cynomologues monkey); format: binding; conditions: nanobody 10 μg/ml
Protocol: as §1

[6] = molecular target: T1, vWF; assay: Cross-reactivity ELISA with vWF from plasma of other species (human); format: binding; set-up: plasma (dog, pig, human, baboon and cynomologues monkey) was applied; from tissue; host or cells: human plasma; conditions: nanobody 10 μg/ml
Protocol: as §1

[7] = estimated, nanobody 5 μg/ml on immobilised vWF
[8] = real KD determination, range of nanobody concentrations, Table 14

B1: 12A5: anti-vWF nanobody, SEQ ID NO: 60 (protein)
VHH: AVQLVESGGGLVQPGGSLRLSCLASGRIFSIGAMGMYRQAPGKQRELVATITSGGSTNYADPVKGRFTISRDGPKNTVYLQMNSLKPEDTAVYYCYANLKQGSYGYRFNDYWGQGTQVTVSS
Kd [1, 7]: 3.98 nM | Koff [1, 7]: 0.00251 s⁻¹ | Kon [1, 7]: 629000 M⁻¹ s⁻¹ | K-on and K-off rates compared among homologue nanobodies [1]: best K-on and K-off rates | Koff [1, 8]: 0.0033 s⁻¹ | Kon [1, 8]: 1.22e+06 M⁻¹ s⁻¹ | Kd ([1]; real KD value, range of nanobody concentrations, Table 14): 2.7 nM | Kd ([1]; wild type and humanised 12A5 nanobodies, Table 37): 1.6 nM | Concentration after heating at increasing temperatures ([2]; 37° C., Table 16): 108 | Concentration after heating at increasing temperatures ([2]; 37° C., Table 22): 108 | Concentration after heating at increasing temperatures ([2]; 37° C., Table 36): 108 | Concentration after heating at increasing temperatures ([2]; 50° C., Table 16): 107 | Concentration after heating at increasing temperatures ([2]; 50° C., Table 22): 107 | Concentration after heating at increasing temperatures ([2]; 50° C., Table 36): 107 | Concentration after heating at increasing temperatures ([2]; 60° C., Table 16): 98 | Concentration after heating at increasing temperatures ([2]; 60° C., Table 22): 98 | Concentration after heating at increasing temperatures ([2]; 60° C., Table 36): 98 | Concentration after heating at increasing temperatures ([2]; 70° C., Table 16): 83 | Concentration after heating at increasing temperatures ([2]; 70° C., Table 22): 83 | Concentration after heating at increasing temperatures ([2]; 70° C., Table 36): 83 | Concentration after heating at increasing temperatures ([2]; 80° C., Table 16): 75 | Concentration after heating at increasing temperatures ([2]; 80° C., Table 22): 75 | Concentration after heating at increasing temperatures ([2]; 80° C., Table 36): 75 | Concentration after heating at increasing temperatures ([2]; 90° C., Table 16): 66 | Concentration after heating at increasing temperatures ([2]; 90° C., Table 22): 66 | Concentration after heating at increasing temperatures ([2]; 90° C., Table 36): 66 | Concentration after heating at increasing temperatures ([2]; RT, Table 16): 100 | Concentration after heating at increasing temperatures ([2]; RT, Table 22): 100 | stability at elevated temperatures (binding to vWF in ELISA after heating) [3]: very stable at elevated temperatures | cross-reactivity with baboon vWF [4]: cross-reactive | cross-reactivity with cynomologues monkey vWF [5]: cross-reactive | cross-reactivity with human vWF [6]: cross-reactive

B2: 12B4: 12A5 homologue nanobody, SEQ ID NO: 67 (protein)
VHH: B1 VHH with A1Q, M36L, P62S
Koff [1, 7]: 0.0022 s⁻¹ | Kon [1, 7]: 544000 M⁻¹ s⁻¹ | K-on and K-off rates compared among homologue nanobodies [1]: best K-on and K-off rates

B3: 12E8: 12A5 homologue nanobody, SEQ ID NO: 68 (protein)
VHH: B1 VHH with V5E, M36L, P62S, P74A, S103D
Koff [1, 7]: 0.00293 s⁻¹ | Kon [1, 7]: 171000 M⁻¹ s⁻¹

B4: 12A6: 12A5 homologue nanobody, SEQ ID NO: 69 (protein)
VHH: B1 VHH with A1Q, A33T, M36L, P62S, P74A, K86R, S103D
Koff [1, 7]: 0.00472 s⁻¹ | Kon [1, 7]: 188000 M⁻¹ s⁻¹

B5: 12D8: 12A5 homologue nanobody, SEQ ID NO: 70 (protein)
VHH: B1 VHH with A33T, M36L, P62S, P74A, K86R, S103D
Koff [1, 7]: 0.00584 s⁻¹ | Kon [1, 7]: 139000 M⁻¹ s⁻¹

B6: 12A5H1: humanised 12A5 nanobody, SEQ ID NO: 95 (protein)
VHH: B1 VHH with A1E, L23A, Q44G, K86R, P87A
Concentration after heating at increasing temperatures ([2]; 37° C., Table 36): 99 | Concentration after heating at increasing temperatures ([2]; 50° C., Table 36): 91 | Concentration after heating at increasing temperatures ([2]; 60° C., Table 36): 86 | Concentration after heating at increasing temperatures ([2]; 70° C., Table 36): 60 | Concentration after heating at increasing temperatures ([2]; 80° C., Table 36): 69 | Concentration after heating at increasing temperatures ([2]; 90° C., Table 36): 63

B7: 12A5H2: humanised 12A5 nanobody, SEQ ID NO: 96 (protein)
VHH: B1 VHH with A1E, L23A, Q44G, P74A, K86R, P87A
Concentration after heating at increasing temperatures ([2]; 37° C., Table 36): 99 | Concentration after heating at increasing temperatures ([2]; 50° C., Table 36): 108 | Concentration after heating at increasing temperatures ([2]; 60° C., Table 36): 90 | Concentration after heating at increasing temperatures ([2]; 70° C., Table 36): 58 | Concentration after heating at increasing temperatures ([2]; 80° C., Table 36): 67 | Concentration after heating at increasing temperatures ([2]; 90° C., Table 36): 60

B8: 12A5H3: humanised 12A5 nanobody, SEQ ID NO: 97 (protein)
VHH: B1 VHH with A1E, L23A, Q44G, G73N, P74A, K86R, P87A
Concentration after heating at increasing temperatures ([2]; 37° C., Table 36): 101 | Concentration after heating at increasing temperatures ([2]; 50° C., Table 36): 97 | Concentration after heating at increasing temperatures ([2]; 60° C., Table 36): 97 | Concentration after heating at increasing temperatures ([2]; 70° C., Table 36): 67 | Concentration after heating at increasing temperatures ([2]; 80° C., Table 36): 73 | Concentration after heating at increasing temperatures ([2]; 90° C., Table 36): 64

B9: 12B6H2-3a-12B6H2 (protein)
VHH: EVQLVESGGGLVQPGGSLRLSCAASGRTFSYNPMGWFRQAPGKGREVVAAISRTGGSTYYARSVEGRFTISRDNAKRMVYLQMNSLRAEDTAVYYCAAAGVRAEDGRVRTLPSEYNFWGQGTQVTVSSAAAEVQLVESGGGLVQPGGSLRLSCAASGRTFSYNPMGWFRQAPGKGREVVAAISRTGGSTYYARSVEGRFTISRDNAKRMVYLQMNSLRAEDTAVYYCAAAGVRAEDGRVRTLPSEYNFWGQGTQVTVSS
Concentration after heating at increasing temperatures ([2]; 37° C., Tags: No, Table 40): 100 | Concentration after heating at increasing temperatures ([2]; 37° C., Tags: Yes, Table 40): 100 | Concentration after heating at increasing temperatures ([2]; 50° C., Tags: No, Table 40): 99 | Concentration after heating at increasing temperatures ([2]; 50° C., Tags: Yes, Table 40): 91 | Concentration after heating at increasing temperatures ([2]; 60° C., Tags: No, Table 40): 99 | Concentration after heating at increasing temperatures ([2]; 60° C., Tags: Yes, Table 40): 85 | Concentration after heating at increasing temperatures ([2]; 70° C., Tags: No, Table 40): 28 | Concentration after heating at increasing temperatures ([2]; 70° C., Tags: Yes, Table 40): 7 | Concentration after heating at increasing temperatures ([2]; 80° C., Tags: No, Table 40): 13 | Concentration after heating at increasing temperatures ([2]; 80° C., Tags: Yes, Table 40): 6 | Concentration after heating at increasing temperatures ([2]; 90° C., Tags: No, Table 40): 18 | Concentration after heating at increasing temperatures ([2]; 90° C., Tags: Yes, Table 40): 7

B10: 12A2H1-3a-12A2H1 (protein)
VHH: B9 VHH with V47L, A61P, R62D, N116T, V178L, A192P, R193D, N247T
Concentration after heating at increasing temperatures ([2]; 37° C., Tags: No, Table 40): 100 | Concentration after heating at increasing temperatures ([2]; 37° C., Tags: Yes, Table 40): 98 | Concentration after heating at increasing temperatures ([2]; 50° C., Tags: No, Table 40): 99 | Concentration after heating at increasing temperatures ([2]; 50° C., Tags: Yes, Table 40): 96 | Concentration after heating at increasing temperatures ([2]; 60° C., Tags: No, Table 40): 100 | Concentration after heating at increasing temperatures ([2]; 60° C., Tags: Yes, Table 40): 93 | Concentration after heating at increasing temperatures ([2]; 70° C., Tags: No, Table 40): 77 | Concentration after heating at increasing temperatures ([2]; 70° C., Tags: Yes, Table 40): 63 | Concentration after heating at increasing temperatures ([2]; 80° C., Tags: No, Table 40): 14 | Concentration after heating at increasing temperatures ([2]; 80° C., Tags: Yes, Table 40): 8 | Concentration after heating at increasing temperatures ([2]; 90° C., Tags: No, Table 40): 15 | Concentration after heating at increasing temperatures ([2]; 90° C., Tags: Yes, Table 40): 9

B11: 12A2H4-3a-12A2H4 (protein)
chain: B9 VHH with V47L, A61P, R62D, M78S, N116T, V178L, A192P, R193D, M209S, N247T
Concentration after heating at increasing temperatures ([2]; 37° C., Tags: No, Table 40): 98 | Concentration after heating at increasing temperatures ([2]; 37° C., Tags: Yes, Table 40): 100 | Concentration after heating at increasing temperatures ([2]; 50° C., Tags: No, Table 40): 98 | Concentration after heating at increasing temperatures ([2]; 50° C., Tags: Yes, Table 40): 99 | Concentration after heating at increasing temperatures ([2]; 60° C., Tags: No, Table 40): 98 | Concentration after heating at increasing temperatures ([2]; 60° C., Tags: Yes, Table 40): 95 | Concentration after heating at increasing temperatures ([2]; 70° C., Tags: No, Table 40): 18 | Concentration after heating at increasing temperatures ([2]; 70° C., Tags: Yes, Table 40): 9 | Concentration after heating at increasing temperatures ([2]; 80° C., Tags: No, Table 40): 17 | Concentration after heating at increasing temperatures ([2]; 80° C., Tags: Yes, Table 40): 6 | Concentration after heating at increasing temperatures ([2]; 90° C., Tags: No, Table 40): 26 | Concentration after heating at increasing temperatures ([2]; 90° C., Tags: Yes, Table 40): 9
